## Reported melting point values for industrial, environmental and drug-like chemicals

Data: OPERA 2.9 data sets, kmansouri/OPERA on GitHub.

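These are experimental values that the OPERA curators gathered from public databases to train and test their QSAR models. The files give a single number for a compound and property, which may rest on several reports. Method and conditions are not stated for these values. A value may pool stereoisomers or salt forms, and the file does not say which form was measured. Some upstream entries may be estimates or bounds without being marked so.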

Melting points are in °C.

{"smiles": "CC(C(=O)O)n1cccn1", "stereo": "centres undefined", "name": "2-(1H-Pyrazol-1-yl)propanoic acid", "MP (°C)": "97"}
{"smiles": "Nc1ccc(S(=O)(=O)Nc2cccnc2)cc1", "name": "4-amino-N-pyridin-3-ylbenzenesulfonamide", "MP (°C)": "257"}
{"smiles": "O=C(O)Cc1csc(-c2cccnc2)n1", "name": "[2-(Pyridin-3-yl)-1,3-thiazol-4-yl]acetic acid", "MP (°C)": "116"}
{"smiles": "COc1cc2nc(Cl)nc(N)c2cc1OC", "name": "4-Amino-2-chloro-6,7-dimethoxyquinazoline", "MP (°C)": "276.2"}
{"smiles": "CNc1ccc(Br)cn1", "name": "5-Bromo-N-methylpyridin-2-amine", "MP (°C)": "70"}
{"smiles": "CCCCn1c(N)cc(=O)[nH]c1=O", "name": "6-Amino-1-butyl-1H-pyrimidine-2,4-dione", "MP (°C)": "239"}
{"smiles": "CCO[Si](CNC1CCCCC1)(OCC)OCC", "name": "Cyclohexanamine, N-[(triethoxysilyl)methyl]-", "MP (°C)": "-80.15"}
{"smiles": "Cc1ccc(S(=O)(=O)O)cc1.OCC1CN(Cc2ccccc2)CC=C1c1ccc(F)cc1", "stereo": "centres undefined", "MP (°C)": "164"}
{"smiles": "CC(C)Cc1ccc(-c2csc(N)n2)cc1", "name": "4-(4-isobutylphenyl)-1,3-thiazol-2-amine", "MP (°C)": "109"}
{"smiles": "CN(C)S(=O)(=O)c1ccc(Cl)c(N)c1", "name": "3-Amino-4-chloro-N,N-dimethylbenzene-1-sulfonamide", "MP (°C)": "120"}
{"smiles": "COCc1ccc(C(=O)O)o1", "name": "5-(methoxymethyl)furan-2-carboxylic acid", "MP (°C)": "64"}
{"smiles": "CN(C)C(=O)c1cccnc1Cl", "name": "2-chloro-N,N-dimethylnicotinamide", "MP (°C)": "70"}
{"smiles": "CCN(CC)Cc1ccc(C(=O)O)cc1", "name": "4-[(diethylamino)methyl]benzoic acid", "MP (°C)": "155"}
{"smiles": "CC(C)C(N)=S", "name": "2-methylpropanethioamide", "MP (°C)": "43"}
{"smiles": "O=C(O)CCSc1ccccc1Cl", "name": "3-(2-Chloro-phenylsulfanyl)-propionic acid", "MP (°C)": "97"}
{"smiles": "O=C(O)c1n[nH]c2c1CCC2", "name": "1,4,5,6-Tetrahydrocyclopenta[c]pyrazole-3-carboxylic acid", "MP (°C)": "288"}
{"smiles": "Nc1cc(Br)ccc1N1CCOCC1", "name": "5-bromo-2-morpholin-4-ylaniline", "MP (°C)": "154"}
{"smiles": "COc1ccccc1NC(=O)CC(=O)Nc1ccccc1OC", "name": "N~1~,N~3~-Bis(2-methoxyphenyl)propanediamide", "MP (°C)": "155"}
{"smiles": "O=C(CCl)c1ccc2c(c1)CCCC2", "name": "2-Chloro-1-(5,6,7,8-tetrahydronaphthalen-2-yl)ethan-1-one", "MP (°C)": "63"}
{"smiles": "CCCCS(N)(=O)=O", "name": "1-Butanesulfonamide", "MP (°C)": "44"}
{"smiles": "COC(=O)C(=O)CC(=O)c1ccncc1", "name": "methyl 2,4-dioxo-4-(pyridin-4-yl)butanoate", "MP (°C)": "94"}
{"smiles": "COc1ccccc1C1CNCCN1", "stereo": "centres undefined", "name": "2-(2-Methoxyphenyl)piperazine", "MP (°C)": "79.5"}
{"smiles": "Cc1n[nH]c(C)n1", "name": "1H-1,2,4-Triazole, 3,5-dimethyl-", "MP (°C)": "129"}
{"smiles": "CCc1nnc(-c2ccccn2)nc1CC", "name": "5,6-Diethyl-3-(pyridin-2-yl)-1,2,4-triazine", "MP (°C)": "69.5"}
{"smiles": "Clc1ccc(Cl)c(-c2c(Cl)cccc2Cl)c1", "MP (°C)": "103"}
{"smiles": "NC(=O)CCS(=O)(=O)CCCl", "name": "3-[(2-chloroethyl)sulfonyl]propanamide", "MP (°C)": "140"}
{"smiles": "Nc1ccnn1Cc1ccccc1", "name": "1-Benzyl-1H-pyrazol-5-amine", "MP (°C)": "83"}
{"smiles": "CS(=O)(=O)Nc1ccc(N)cc1", "name": "4-(Methylsulfonamido)aniline", "MP (°C)": "115"}
{"smiles": "Nc1cccnc1Oc1ccccc1", "name": "2-Phenoxypyridin-3-amine", "MP (°C)": "108"}
{"smiles": "CCOc1ccc2ccccc2c1CO", "name": "(2-ethoxy-1-naphthyl)methanol", "MP (°C)": "50"}
{"smiles": "CC(NC(=O)c1ccccc1N)c1ccccc1", "stereo": "centres undefined", "name": "2-amino-N-(1-phenylethyl)benzamide", "MP (°C)": "128"}

Excerpt, the opening 5 entries:

{"smiles": "CC(C(=O)O)n1cccn1", "stereo": "centres undefined", "name": "2-(1H-Pyrazol-1-yl)propanoic acid", "MP (°C)": "97"}
{"smiles": "Nc1ccc(S(=O)(=O)Nc2cccnc2)cc1", "name": "4-amino-N-pyridin-3-ylbenzenesulfonamide", "MP (°C)": "257"}
{"smiles": "O=C(O)Cc1csc(-c2cccnc2)n1", "name": "[2-(Pyridin-3-yl)-1,3-thiazol-4-yl]acetic acid", "MP (°C)": "116"}
{"smiles": "COc1cc2nc(Cl)nc(N)c2cc1OC", "name": "4-Amino-2-chloro-6,7-dimethoxyquinazoline", "MP (°C)": "276.2"}
{"smiles": "CNc1ccc(Br)cn1", "name": "5-Bromo-N-methylpyridin-2-amine", "MP (°C)": "70"}